Experimental data: article PMC8278288 (Frontiers in Immunology, 2021)

T1: IL-7 receptor ectodomain (rhIL-7Rα) (human, UniProt P16871 21-239)
T1 chain: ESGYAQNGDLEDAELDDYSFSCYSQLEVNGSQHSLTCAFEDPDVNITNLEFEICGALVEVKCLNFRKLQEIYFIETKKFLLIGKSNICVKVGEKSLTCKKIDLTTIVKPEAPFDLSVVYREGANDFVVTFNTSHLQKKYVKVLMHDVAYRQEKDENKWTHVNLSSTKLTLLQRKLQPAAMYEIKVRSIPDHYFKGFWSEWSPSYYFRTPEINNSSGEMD


Target: T1, IL-7 receptor ectodomain (rhIL-7Rα)
Assay: SPR

| Kd [nM] | Binder |
| --- | --- |
| 77 | recombinant human IL-7 produced in E. coli (non-glycosylated), intact (ligand) DCDIEGKDGKQYESVLMVSIDQLLDSMKEIGSNCLNNEFNFFKRHICDANKEGMFLFRAARKLRQFLKMNSTGDFDLHLLKVSEGTTILLNCTGQVKGRKPAALGEAQPTKSLEENKSLKEQKKLNDLCFLKRLLQEIKTCWNKILMGTKEH |
| 310 | recombinant human IL-7 produced in human HEK-293 cells (fully glycosylated), intact (ligand, N-linked oligosaccharides (fully glycosylated; sites shown in Figure 1D)) DCDIEGKDGKQYESVLMVSIDQLLDSMKEIGSNCLNNEFNFFKRHICDANKEGMFLFRAARKLRQFLKMNSTGDFDLHLLKVSEGTTILLNCTGQVKGRKPAALGEAQPTKSLEENKSLKEQKKLNDLCFLKRLLQEIKTCWNKILMGTKEH |
